Key:
WEE1 = WEE1 (Homo sapiens, UniProt P30291+Q96SW2); experiment: Western blot assay of substrate protein degradation in hPBMCs; conditions: 24 hours treatment, compounds at 50 nM and 500 nM (concentration behind the class not stated)
IKZF3 = IKZF3 (Homo sapiens, UniProt Q96SW2+Q9UKT9); experiment: as above; conditions: 24 hours treatment, compounds at 50 nM and 500 nM (concentration behind the class not stated)
IKZF2 = IKZF2 (Homo sapiens, UniProt Q96SW2+Q9UKS7); experiment: as above; conditions: 24 hours treatment, compounds at 50 nM and 500 nM (concentration behind the class not stated)
CK1α = CK1α (Homo sapiens, UniProt P48729+Q96SW2); experiment: as above; conditions: 24 hours treatment, compounds at 50 nM and 500 nM (concentration behind the class not stated)
GSPT1 = GSPT1 (Homo sapiens, UniProt P15170+Q96SW2); experiment: as above; conditions: 24 hours treatment, compounds at 50 nM and 500 nM (concentration behind the class not stated)
IKZF1 = IKZF1 (Homo sapiens, UniProt Q13422+Q96SW2); experiment: as above; conditions: 24 hours treatment, compounds at 50 nM and 500 nM (concentration behind the class not stated)
[1] = tested on: Human multiple myeloma cell (MM.1S); experiment: Tumor cell proliferation inhibition (cell viability assay); conditions: MM.1S cells, 96 hours; for IC50: read-out: Inhibitory activity against tumor cells proliferation (IC50, nM) MM.1S
CRBN = CRBN (Homo sapiens, UniProt Q96SW2); experiment: CRBN binding affinity by HTRF (CEREBLON BINDING kit); conditions: for Inhibition Rate at 0.5 µM (%) / Inhibition Rate at 2 µM (%): CRBN binding, HTRF; for Inhibition Rate at 0.5 µM (%): compound at 0.5 µM; for Inhibition Rate at 2 µM (%): compound at 2 µM; for IC50: read-out: HTRF IC50, human Cereblon WT GST-tagged protein, 3 hours at room temperature
TNF-α = experiment: Inflammatory cytokine release from PBMCs induced by PHA (flow cytometry CBA); conditions: PHA 1 µg/mL, 24 h
IL-2 = experiment: as above; conditions: PBMCs, PHA 1 µg/mL, 24 h
[2] = tested on: Human myeloid monocytic leukemia cell (MV-4-11); experiment: Tumor cell proliferation inhibition (cell viability assay); conditions: MV-4-11 cells, 96 hours

Protein sequences, listed by entry. Tags and fused reporters are not part of them.
UniProt P30291, whole entry: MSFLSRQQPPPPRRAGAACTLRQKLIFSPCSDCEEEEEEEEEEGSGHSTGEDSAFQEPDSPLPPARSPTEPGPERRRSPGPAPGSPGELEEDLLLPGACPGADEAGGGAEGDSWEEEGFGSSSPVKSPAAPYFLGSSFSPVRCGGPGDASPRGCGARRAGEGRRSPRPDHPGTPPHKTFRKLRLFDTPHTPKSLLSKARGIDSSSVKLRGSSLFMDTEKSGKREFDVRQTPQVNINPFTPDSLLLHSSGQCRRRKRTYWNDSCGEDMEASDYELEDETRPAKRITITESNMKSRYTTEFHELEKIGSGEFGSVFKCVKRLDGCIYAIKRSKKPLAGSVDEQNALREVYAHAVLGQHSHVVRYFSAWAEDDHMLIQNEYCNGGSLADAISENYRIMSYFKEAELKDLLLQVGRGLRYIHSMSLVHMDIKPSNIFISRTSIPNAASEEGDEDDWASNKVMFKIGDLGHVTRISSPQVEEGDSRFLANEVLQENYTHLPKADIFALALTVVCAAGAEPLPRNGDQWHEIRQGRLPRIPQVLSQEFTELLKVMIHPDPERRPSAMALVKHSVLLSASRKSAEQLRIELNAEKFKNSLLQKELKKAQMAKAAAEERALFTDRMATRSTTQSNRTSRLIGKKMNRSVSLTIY
UniProt Q96SW2, whole entry: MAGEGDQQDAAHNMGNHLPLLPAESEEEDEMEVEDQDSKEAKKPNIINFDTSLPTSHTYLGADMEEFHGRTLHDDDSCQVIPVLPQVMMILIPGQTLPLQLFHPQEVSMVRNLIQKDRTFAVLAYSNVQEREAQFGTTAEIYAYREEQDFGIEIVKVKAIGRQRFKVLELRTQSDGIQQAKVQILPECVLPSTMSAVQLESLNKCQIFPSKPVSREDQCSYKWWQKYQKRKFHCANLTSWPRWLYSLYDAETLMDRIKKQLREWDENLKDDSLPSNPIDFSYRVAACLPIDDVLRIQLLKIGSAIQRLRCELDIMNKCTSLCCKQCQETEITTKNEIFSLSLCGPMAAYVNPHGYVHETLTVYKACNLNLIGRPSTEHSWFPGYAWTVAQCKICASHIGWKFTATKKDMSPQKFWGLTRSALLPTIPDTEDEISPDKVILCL
UniProt Q9UKT9, whole entry: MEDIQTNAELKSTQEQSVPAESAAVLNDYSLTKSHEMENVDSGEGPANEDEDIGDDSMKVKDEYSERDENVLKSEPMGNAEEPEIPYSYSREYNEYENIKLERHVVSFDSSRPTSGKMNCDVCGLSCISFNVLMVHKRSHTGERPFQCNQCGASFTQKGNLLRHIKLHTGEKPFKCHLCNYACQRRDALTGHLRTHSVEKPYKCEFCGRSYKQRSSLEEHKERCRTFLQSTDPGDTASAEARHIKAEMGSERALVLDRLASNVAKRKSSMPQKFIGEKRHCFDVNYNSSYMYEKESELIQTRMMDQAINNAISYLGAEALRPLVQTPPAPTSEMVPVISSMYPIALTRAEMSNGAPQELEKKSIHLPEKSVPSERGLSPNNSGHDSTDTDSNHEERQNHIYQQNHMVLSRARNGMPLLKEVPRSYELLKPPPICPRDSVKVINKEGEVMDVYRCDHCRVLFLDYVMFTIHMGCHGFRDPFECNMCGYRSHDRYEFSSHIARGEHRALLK
UniProt Q9UKS7, whole entry: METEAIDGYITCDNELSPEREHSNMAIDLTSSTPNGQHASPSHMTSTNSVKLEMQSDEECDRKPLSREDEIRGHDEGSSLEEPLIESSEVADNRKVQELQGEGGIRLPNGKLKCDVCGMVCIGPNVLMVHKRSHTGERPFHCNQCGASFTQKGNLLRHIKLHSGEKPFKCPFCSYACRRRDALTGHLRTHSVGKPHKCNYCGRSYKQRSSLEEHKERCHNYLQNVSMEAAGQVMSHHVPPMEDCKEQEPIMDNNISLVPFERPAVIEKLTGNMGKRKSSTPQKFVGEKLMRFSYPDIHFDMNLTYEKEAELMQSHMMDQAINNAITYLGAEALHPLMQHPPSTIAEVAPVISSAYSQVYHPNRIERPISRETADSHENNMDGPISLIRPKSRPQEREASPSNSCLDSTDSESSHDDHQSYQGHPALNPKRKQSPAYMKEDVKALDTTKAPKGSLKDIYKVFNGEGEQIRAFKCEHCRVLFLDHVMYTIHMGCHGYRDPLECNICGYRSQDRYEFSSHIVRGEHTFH
UniProt P48729, whole entry: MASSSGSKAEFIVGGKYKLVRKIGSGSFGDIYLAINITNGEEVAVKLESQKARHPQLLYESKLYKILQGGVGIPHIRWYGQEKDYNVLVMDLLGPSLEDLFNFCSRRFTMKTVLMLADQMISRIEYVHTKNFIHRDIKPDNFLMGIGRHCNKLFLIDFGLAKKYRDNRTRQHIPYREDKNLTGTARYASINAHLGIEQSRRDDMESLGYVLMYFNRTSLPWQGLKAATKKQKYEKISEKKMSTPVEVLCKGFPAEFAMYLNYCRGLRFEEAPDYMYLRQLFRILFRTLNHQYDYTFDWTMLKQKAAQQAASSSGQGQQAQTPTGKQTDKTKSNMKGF
UniProt P15170, whole entry: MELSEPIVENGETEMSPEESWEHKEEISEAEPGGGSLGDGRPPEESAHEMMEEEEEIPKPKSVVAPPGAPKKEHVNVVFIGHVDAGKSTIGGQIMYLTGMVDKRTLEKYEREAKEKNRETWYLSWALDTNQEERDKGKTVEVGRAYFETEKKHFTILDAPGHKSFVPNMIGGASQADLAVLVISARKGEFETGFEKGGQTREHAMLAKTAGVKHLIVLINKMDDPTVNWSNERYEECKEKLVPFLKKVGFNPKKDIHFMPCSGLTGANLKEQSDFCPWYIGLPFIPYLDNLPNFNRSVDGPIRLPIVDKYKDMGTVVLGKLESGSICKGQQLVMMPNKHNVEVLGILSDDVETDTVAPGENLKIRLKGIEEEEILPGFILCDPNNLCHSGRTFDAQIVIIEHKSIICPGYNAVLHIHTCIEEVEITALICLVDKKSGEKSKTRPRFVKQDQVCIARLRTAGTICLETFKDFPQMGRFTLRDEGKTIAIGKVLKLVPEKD
UniProt Q13422, whole entry: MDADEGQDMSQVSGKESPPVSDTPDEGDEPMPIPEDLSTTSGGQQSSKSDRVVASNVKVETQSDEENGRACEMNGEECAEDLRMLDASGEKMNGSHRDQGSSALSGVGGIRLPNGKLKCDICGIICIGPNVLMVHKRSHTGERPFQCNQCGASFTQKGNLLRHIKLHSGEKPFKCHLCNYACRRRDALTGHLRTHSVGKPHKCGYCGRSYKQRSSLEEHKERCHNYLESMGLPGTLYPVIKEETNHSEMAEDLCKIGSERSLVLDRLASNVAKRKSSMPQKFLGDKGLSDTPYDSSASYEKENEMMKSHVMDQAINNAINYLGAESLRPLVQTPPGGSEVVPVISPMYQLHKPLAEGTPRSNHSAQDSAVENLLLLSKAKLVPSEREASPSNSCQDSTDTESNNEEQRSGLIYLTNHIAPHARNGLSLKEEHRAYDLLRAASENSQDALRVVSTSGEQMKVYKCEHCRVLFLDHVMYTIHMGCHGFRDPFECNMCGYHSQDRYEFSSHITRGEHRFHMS
UniProt Q16531, whole entry partner: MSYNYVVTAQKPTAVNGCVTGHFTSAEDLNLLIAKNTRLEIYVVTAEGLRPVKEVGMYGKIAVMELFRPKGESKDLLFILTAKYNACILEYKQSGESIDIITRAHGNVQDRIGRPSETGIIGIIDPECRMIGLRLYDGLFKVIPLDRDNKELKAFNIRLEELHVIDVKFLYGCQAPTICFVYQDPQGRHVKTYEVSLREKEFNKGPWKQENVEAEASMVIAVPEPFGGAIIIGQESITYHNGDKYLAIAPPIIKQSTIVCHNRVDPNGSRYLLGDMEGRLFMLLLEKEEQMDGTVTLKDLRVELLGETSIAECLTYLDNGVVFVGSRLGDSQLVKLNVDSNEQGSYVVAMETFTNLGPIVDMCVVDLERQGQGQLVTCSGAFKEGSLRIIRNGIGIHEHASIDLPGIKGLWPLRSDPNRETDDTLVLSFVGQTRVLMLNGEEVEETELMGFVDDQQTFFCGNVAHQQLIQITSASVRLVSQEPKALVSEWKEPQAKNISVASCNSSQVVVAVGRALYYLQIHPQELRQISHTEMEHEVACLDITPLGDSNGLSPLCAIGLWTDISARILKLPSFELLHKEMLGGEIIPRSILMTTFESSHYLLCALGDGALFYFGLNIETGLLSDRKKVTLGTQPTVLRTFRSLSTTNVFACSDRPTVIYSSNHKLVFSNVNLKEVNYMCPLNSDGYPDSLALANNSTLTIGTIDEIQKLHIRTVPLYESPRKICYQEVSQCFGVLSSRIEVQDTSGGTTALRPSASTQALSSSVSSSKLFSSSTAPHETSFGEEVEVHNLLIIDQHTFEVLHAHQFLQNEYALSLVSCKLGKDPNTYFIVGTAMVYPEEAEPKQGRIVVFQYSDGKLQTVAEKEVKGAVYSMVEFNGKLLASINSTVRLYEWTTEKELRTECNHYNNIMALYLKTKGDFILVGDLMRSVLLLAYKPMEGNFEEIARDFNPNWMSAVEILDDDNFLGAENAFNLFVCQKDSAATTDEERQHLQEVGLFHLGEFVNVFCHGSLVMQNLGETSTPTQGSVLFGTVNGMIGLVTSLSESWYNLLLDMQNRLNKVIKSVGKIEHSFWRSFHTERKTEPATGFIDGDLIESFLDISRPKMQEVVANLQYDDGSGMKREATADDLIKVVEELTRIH

SMILES	substrate protein remaining % (WEE1) (WEE1)	substrate protein remaining % (IKZF3) (IKZF3)	substrate protein remaining % (IKZF2) (IKZF2)	substrate protein remaining % (CK1a) (CK1α)	substrate protein remaining % (GSPT1) (GSPT1)	substrate protein remaining % (IKZF 1) (IKZF1)	Inhibition Rate at 10 nM (%) [1]	Inhibition Rate at 500 nM (%) [1]	Inhibition Rate at 0.5 µM (%) (CRBN)	Inhibition Rate at 2 µM (%) (CRBN)	IC50 [1] [nM]	IC50 (CRBN) [nM]	Inhibition Rate (%) TNF-α (TNF-α; 0.1 µM)	Inhibition Rate (%) IL-2 (IL-2; 0.1 µM)	Inhibition Rate (%) IL-2 (IL-2; 1 µM)	Inhibition Rate at 10 nM (%) [2]	Inhibition Rate at 500 nM (%) [2]	Inhibition Rate (%) TNF-α (TNF-α; 1 µM)
O=C1CCC(N2Cc3c(ccc(CN4CCC(N5CCN(c6noc7cc(F)ccc67)CC5)C(F)(F)C4)c3F)C2=O)C(=O)N1 (centres unmarked)	A (0% ≤ substrate protein remaining % ≤ 80%)	A (0% ≤ substrate protein remaining % ≤ 80%)	A (0% ≤ substrate protein remaining % ≤ 80%)	A (0% ≤ substrate protein remaining % ≤ 80%)	A (0% ≤ substrate protein remaining % ≤ 80%)	A (0% ≤ substrate protein remaining % ≤ 80%)	1b5 (32% ≤ 1b5 < 42%)	1b8 (60% ≤ 1b8 < 70%)	a5 (53% < a5 ≤ 60%)	a6 (60% < a6 ≤ 70%)	–	–	–	–	–	–	–	–
O=C1CCC(N2Cc3cc(CN4CCC(N5CCC(c6noc7cc(F)ccc67)CC5)C(F)(F)C4)ccc3C2=O)C(=O)N1 (centres unmarked)	A (0% ≤ substrate protein remaining % ≤ 80%)	A (0% ≤ substrate protein remaining % ≤ 80%)	A (0% ≤ substrate protein remaining % ≤ 80%)	B (80%< substrate protein remaining %≤ 100%)	A (0% ≤ substrate protein remaining % ≤ 80%)	A (0% ≤ substrate protein remaining % ≤ 80%)	–	–	–	–	10 to 20	100 to 500	–	–	–	–	–	–
O=C1CCC(N2Cc3cc(CCCN4CCC(N5CCN(c6cccc(Cl)c6Cl)CC5)CC4)ccc3C2=O)C(=O)N1 (centres unmarked)	A (0% ≤ substrate protein remaining % ≤ 80%)	A (0% ≤ substrate protein remaining % ≤ 80%)	A (0% ≤ substrate protein remaining % ≤ 80%)	B (80%< substrate protein remaining %≤ 100%)	A (0% ≤ substrate protein remaining % ≤ 80%)	A (0% ≤ substrate protein remaining % ≤ 80%)	–	–	a6 (60% < a6 ≤ 70%)	a8 (80% < a8 ≤100%)	–	–	IV9 (40% < IV9 ≤ 50%)	–	–	–	–	–
O=C1CCC(N2Cc3cc(CN4CCC(N5CCN(c6noc7cc(F)ccc67)CC5)C(F)(F)C4)cc(F)c3C2=O)C(=O)N1 (centres unmarked)	A (0% ≤ substrate protein remaining % ≤ 80%)	A (0% ≤ substrate protein remaining % ≤ 80%)	B (80%< substrate protein remaining %≤ 100%)	A (0% ≤ substrate protein remaining % ≤ 80%)	A (0% ≤ substrate protein remaining % ≤ 80%)	B (80%< substrate protein remaining %≤ 100%)	1b4 (20% ≤ 1b4 < 32%)	1b9 (70% ≤ 1b9 < 80%)	a5 (53% < a5 ≤ 60%)	a8 (80% < a8 ≤100%)	–	–	–	–	–	–	–	–
O=C1CCC(N2Cc3cc(CN4CCC(N5CCN(c6noc7cc(F)ccc67)CC5)C(F)(F)C4)ccc3C2=O)C(=O)N1 (centres unmarked)	B (80%< substrate protein remaining %≤ 100%)	A (0% ≤ substrate protein remaining % ≤ 80%)	B (80%< substrate protein remaining %≤ 100%)	B (80%< substrate protein remaining %≤ 100%)	A (0% ≤ substrate protein remaining % ≤ 80%)	B (80%< substrate protein remaining %≤ 100%)	–	–	–	–	100 to 200	100 to 500	–	–	–	–	–	–
O=C1CCC(N2Cc3cccc(CN4CCC(N5CCN(c6noc7cc(F)ccc67)CC5)CC4)c3C2=O)C(=O)N1 (centres unmarked)	–	–	–	–	–	–	1b10 (80% ≤ 1b10 ≤ 100%)	1b10 (80% ≤ 1b10 ≤ 100%)	–	–	–	–	–	IV9 (40% < IV9 ≤ 50%)	IV8 (30% < IV8 ≤ 40%)	–	–	–
O=C1CCC(N2Cc3cc(CCCN4CCC(N5CCN(c6noc7cc(F)ccc67)CC5)CC4)ccc3C2=O)C(=O)N1 (centres unmarked)	–	–	–	–	–	–	–	–	a7 (70% < a7 ≤80%)	a8 (80% < a8 ≤100%)	–	–	IV9 (40% < IV9 ≤ 50%)	–	–	–	–	–
O=C1CCC(N2Cc3cc(CN4CCC(N5CCN(c6cccc(Cl)c6Cl)CC5)C(F)(F)C4)ccc3C2=S)C(=O)N1 (centres unmarked)	A (0% ≤ substrate protein remaining % ≤ 80%)	B (80%< substrate protein remaining %≤ 100%)	B (80%< substrate protein remaining %≤ 100%)	B (80%< substrate protein remaining %≤ 100%)	A (0% ≤ substrate protein remaining % ≤ 80%)	A (0% ≤ substrate protein remaining % ≤ 80%)	1b6 (42% ≤ 1b6 < 50%)	1b7 (50% ≤ 1b7 < 60%)	a4 (40% < a4 ≤ 53%)	a8 (80% < a8 ≤100%)	–	–	–	–	–	–	–	–
O=C1CCC(N2Cc3c(CN4CCC(N5CCC(c6noc7cc(F)ccc67)CC5)C(F)(F)C4)cccc3C2=O)C(=O)N1 (centres unmarked)	A (0% ≤ substrate protein remaining % ≤ 80%)	A (0% ≤ substrate protein remaining % ≤ 80%)	A (0% ≤ substrate protein remaining % ≤ 80%)	A (0% ≤ substrate protein remaining % ≤ 80%)	A (0% ≤ substrate protein remaining % ≤ 80%)	A (0% ≤ substrate protein remaining % ≤ 80%)	1b5 (32% ≤ 1b5 < 42%)	1b8 (60% ≤ 1b8 < 70%)	–	–	–	–	–	–	–	1a4 (20% ≤ 1a4 < 30%)	1a8 (60% ≤ 1a8 < 70%)	–
CC1(C)CCC(C(=O)N2CCN(C3CCN(C(=O)c4cc5c(cc4F)C(=O)N(C4CCC(=O)NC4=O)C5)CC3(F)F)CC2)=C(c2ccc(Cl)cc2)C1 (centres unmarked)	–	–	–	–	–	–	–	–	a5 (53% < a5 ≤ 60%)	a8 (80% < a8 ≤100%)	–	–	IV5 (0% < IV5 ≤ 10%)	–	–	–	–	–
O=C1CCC(N2Cc3ccc(CN4CCC(N5CCN(c6noc7cc(F)ccc67)CC5)C(F)(F)C4)cc3C2=S)C(=O)N1 (centres unmarked)	B (80%< substrate protein remaining %≤ 100%)	B (80%< substrate protein remaining %≤ 100%)	B (80%< substrate protein remaining %≤ 100%)	B (80%< substrate protein remaining %≤ 100%)	A (0% ≤ substrate protein remaining % ≤ 80%)	B (80%< substrate protein remaining %≤ 100%)	1b5 (32% ≤ 1b5 < 42%)	1b7 (50% ≤ 1b7 < 60%)	a4 (40% < a4 ≤ 53%)	a7 (70% < a7 ≤80%)	–	–	–	–	–	–	–	–
O=C1CCC(N2Cc3c(ccc(CN4CCC(N5CCN(c6noc7cc(F)ccc67)CC5)CC4)c3F)C2=O)C(=O)N1 (centres unmarked)	–	–	–	–	–	–	–	–	a4 (40% < a4 ≤ 53%)	a7 (70% < a7 ≤80%)	–	–	IV9 (40% < IV9 ≤ 50%)	–	–	–	–	IV9 (40% < IV9 ≤ 50%)
O=C1CCC(N2Cc3ccc(CN4CCC(N5CCN(c6noc7cc(F)ccc67)CC5)CC4)cc3C2=O)C(=O)N1 (centres unmarked)	–	–	–	–	–	–	1b10 (80% ≤ 1b10 ≤ 100%)	1b10 (80% ≤ 1b10 ≤ 100%)	a2 (20% < a2 ≤ 30%)	a5 (53% < a5 ≤ 60%)	–	–	–	–	–	1a6 (40% < 1a6 < 50%)	1a7 (50% ≤ 1a7 < 60%)	–

Source: patent EP4834897A1, “COMPOUNDS WITH TWO AZAHETEROCYCLES SUBSTITUTED ISOINDOLINONE SKELETON AND USES THEREOF” (dated 2026)
